According to PubChem BioAssay AID2451 (National Center for Advancing Translational Sciences (NCATS), 2010):
Only a part is listed here, and it is no random draw. Inconclusive results are not listed. A call without a number means that no potency is given here. Active and inactive are the calls of the source. The call rests on the fitted dose curve; in most records, active means well fitted inhibition curve with a large enough effect; inconclusive means small, poorly fitted or top-dose-only effect, or effect the other way; inactive means flat fitted curve, though single readings scatter.

The chains behind the UniProt entries cited, without tags or fusion partners. Where a name states a change or a piece, a line headed by the entry shows the natural chain unless it says otherwise.
UniProt A8B2U2: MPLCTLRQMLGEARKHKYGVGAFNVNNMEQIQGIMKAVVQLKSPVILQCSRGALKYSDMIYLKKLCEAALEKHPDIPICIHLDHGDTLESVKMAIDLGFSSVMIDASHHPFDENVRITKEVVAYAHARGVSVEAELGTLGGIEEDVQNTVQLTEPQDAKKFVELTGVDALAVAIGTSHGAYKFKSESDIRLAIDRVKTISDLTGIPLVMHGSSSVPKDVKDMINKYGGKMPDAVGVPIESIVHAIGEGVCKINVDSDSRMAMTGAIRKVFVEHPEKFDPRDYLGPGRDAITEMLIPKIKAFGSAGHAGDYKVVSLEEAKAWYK

biological target: Fructose-bisphosphate aldolase (Giardia intestinalis (strain ATCC 50803 / WB clone C6)) (UniProt A8B2U2); assay: qHTS Assay for Inhibitors of Fructose-1,6-bisphosphate Aldolase from Giardia Lamblia; details: purified Giardia FBPA; series mostly up to 59.6 µM; further: nearly all actives have a fitted effect of over 55% in size
Potency means the concentration at half of the fitted maximal effect.

SMILES | Potency
CC(=O)N1C2C3N(C(C)=O)C1C1N(C(C)=O)C(C(N1C(C)=O)N3C(C)=O)N2C(C)=O | inactive
Cc1ccc(NP(=O)(Oc2ccccc2)Oc2ccccc2)nc1 | inactive
COc1ccc(C2=NCC(CBr)S2)cc1 (configuration not stated) | inactive
CN(C)C(=O)OCCc1n(C)cc[n+]1C | inactive
CC(C)=N/N=C(\N)N[N+](=O)[O-] | inactive
CC(=O)C1=CCCC2CCC1N2 (configuration not stated) | inactive
Nc1ccc([As](=O)(O)c2ccc(N)cc2)cc1 | inactive
CCN(/C(=N/P(=O)(N1CCOCC1)N1CCOCC1)N1CCOCC1)c1ccc(OC)cc1 | inactive
O=C(Nc1cc([As](=O)(O)O)ccc1O)c1ccccc1 | inactive
O=[N+]([O-])c1cccc(NC2=NCC(CBr)S2)c1 (configuration not stated) | inactive
O=C(O)CNc1ccc([As](=O)(O)O)cc1 | inactive
CC(C)(C)C(=O)NC(Sc1ccncn1)C(Cl)(Cl)Cl (configuration not stated) | active: 3.15 µM
Cc1ccc(NP(=O)(Oc2ccccc2F)Oc2ccccc2F)nc1 | inactive
CN(C(=O)Cc1ccc(Cl)c(Cl)c1)[C@H]1CCCC[C@@H]1N1CCCC1 | inactive
CCOP(=O)(Nc1ccccc1)OCC | inactive
Cc1cc(SC(NC(=O)c2ccc(F)cc2)C(Cl)(Cl)Cl)ncn1 (configuration not stated) | active: 3.54 µM
O=C(O)c1ccccc1[As](=O)(O)O | inactive
CC(=O)Nc1ccc([As](=O)(O)O)cc1 | inactive
O=P(Nc1nc2ccc(Cl)cc2s1)(c1ccccc1)c1ccccc1 | inactive
CCN(N=Nc1nonc1N)c1nonc1N | inactive
Cc1ccc(OP(=O)(Nc2nccs2)Oc2ccc(C)cc2)cc1 | inactive
COc1ccccc1OP(=O)(Nc1ccc(C)cn1)Oc1ccccc1OC | inactive
Clc1ccc(Cl)c(NC2=NCC(CBr)S2)c1 (configuration not stated) | inactive
CN1CCCC(OC(=O)C(c2ccccc2)c2ccccc2)C1 (configuration not stated) | inactive
NC(=O)c1cc([N+](=O)[O-])cc([N+](=O)[O-])c1N | inactive
Cc1ccc(N/C(=N/P(=O)(N2CCOCC2)N2CCOCC2)N2CCOCC2)cc1 | inactive

SMILES | Potency
CC(C)CC(=O)NC(Sc1ccc(Cl)cc1)C(Cl)(Cl)Cl (configuration not stated) | inactive
Nc1cc(N)c2nonc2c1[N+](=O)[O-] | inactive
Cc1c2non([O-])c-2c(C)[n+](=O)[n+]1[O-] | active: 3.54 µM
O=C(NC(Sc1ccncn1)C(Cl)(Cl)Cl)c1ccccc1 (configuration not stated) | active: 3.54 µM
Oc1ccccc1CNc1ccccn1 | inactive
CC(C)(C)C(=O)NC(Sc1ccccc1)C(Cl)(Cl)Cl (configuration not stated) | inactive
CCOc1ccc(C2=NCC(CBr)S2)cc1 (configuration not stated) | inactive
O=P1(Nc2nc3ccc(Cl)cc3s2)COc2ccccc2O1 (configuration not stated) | inactive
CC(=O)Nc1ccc(Oc2c([N+](=O)[O-])cc([N+](=O)[O-])cc2[N+](=O)[O-])cc1 | inactive
CC(=O)Nc1ccc([As](=O)(O)O)c(O)c1 | inactive
CC(=O)c1ccc(N2CC2c2ccncc2)cc1 (configuration not stated) | inactive
C[C@@H]1C=CCP(=O)(Oc2ccccc2)O1 (some centres not stated) | inactive
C[C@H]1OP(=O)(Oc2ccccc2)C[C@@H]2O[C@@H]21 (some centres not stated) | inactive
CCNC(=S)/N=C(\N)N[N+](=O)[O-] | inactive
O=C(NC1CCS(=O)(=O)C1)NP(=S)(Oc1ccccc1)Oc1ccccc1 (configuration not stated) | inactive
Cc1ccc(NP(=O)(Oc2cccc(C)c2)Oc2cccc(C)c2)nc1 | inactive
CCOC(=O)NC(Sc1ccccc1)C(Cl)(Cl)Cl (configuration not stated) | inactive
c1ccc(-c2nn[nH]n2)c(-c2nn[nH]n2)c1 | inactive
CN(C)C(=O)Oc1noc2ccccc12 | inactive
O=c1c2cc([N+](=O)[O-])ccc2[nH]c2c([N+](=O)[O-])cc([N+](=O)[O-])cc12 | inactive
Cc1ccccc1OP(=O)(Nc1ccccn1)Oc1ccccc1C | inactive
CC(=O)NC(SC(=S)N(CC(C)C)CC(C)C)C(Cl)(Cl)Cl (configuration not stated) | inactive
Cc1ccc(OP(=O)(Nc2ccccn2)Oc2ccc(C)cc2)cc1 | inactive
COC(=O)c1cc2c(s1)N=C(c1ccccc1)N(C)P2(=O)N1CCOCC1 (configuration not stated) | inactive
CCC(=O)N1C2C3N(C(=O)CC)C1C1N(C(=O)CC)C(C(N1C(=O)CC)N3C(=O)CC)N2C(=O)CC | inactive
CN(C(=O)Cc1ccc(Cl)c(Cl)c1)[C@@H]1CCCC[C@@H]1N1CCCC1 | inactive

SMILES | Potency
O=C(OC1CN2CCC1CC2)c1ccccc1 (configuration not stated) | inactive
C[C@H]1OP(=O)(Oc2ccccc2)[C@H](O)[C@H](O)[C@H]1N=[N+]=[N-] (some centres not stated) | inactive
O=P(Nc1nc2ccccc2s1)(c1ccccc1)c1ccccc1 | inactive
O=P(Nc1ccccn1)(c1ccc(Br)cc1)c1ccc(Br)cc1 | inactive
CN(C)C1(CNC(=O)c2ccc(Cl)c(S(N)(=O)=O)c2)CCCCC1 | inactive
Nc1ccc([As](=O)(O)c2ccc([N+](=O)[O-])cc2)cc1 | inactive
O=C(OC1CN2CCC1CC2)c1cccc(Cl)c1 (configuration not stated) | inactive
O=[N+]([O-])c1ccc(O)c(/C=N/Nc2ccc([N+](=O)[O-])cc2[N+](=O)[O-])c1 | inactive
CC(=O)NC(SC(=S)N(C)C)C(Cl)(Cl)Cl (configuration not stated) | inactive
O=[N+]([O-])c1ncn(CCn2cnc([N+](=O)[O-])n2)n1 | inactive
O=[As](O)(c1ccccc1)c1ccc(O)cc1 | inactive
c1nnnn1CCn1cnnn1 | inactive
CCC(C)(OOC(C)(C)C)OOC(C)(C)C | inactive
CC(C)C(=O)NC(Sc1ccccc1)C(Cl)(Cl)Cl (configuration not stated) | inactive
O=P(Nc1nccs1)(c1ccccc1)c1ccccc1 | inactive
CC(C)(C)C(=O)NC(Sc1ncccn1)C(Cl)(Cl)Cl (configuration not stated) | active: 6.29 µM
Clc1n[nH]nc1-c1nn[nH][15n]1 | inactive
CN(CCCl)Cc1cc(Cl)c(NC2=NCCN2)c(Cl)c1 | inactive
CCOP(=O)(Nc1ccc(C)cn1)OCC | inactive
O=P1(Nc2ccccn2)COc2ccccc2OC1 | inactive
CCC1=CC2Cc3nc4ccc(Cl)cc4c(N)c3C(C1)C2 (configuration not stated) | inactive
O=[As](O)(c1ccccc1Br)c1ccccc1Br | inactive
CC(C)/C=N\N=C(\N)N[N+](=O)[O-] | inactive
CN(C(=O)Cc1ccc(Cl)c(Cl)c1)[C@@H]1CCCC[C@H]1N1CCCC1 | inactive
O=C(/C=C/c1ccccc1)OC1CN2CCC1CC2 (configuration not stated) | inactive
